Common to all, as to test: Ki app determination (Waley's method)
Assay [1] concerns the target KPC-38 (Klebsiella pneumoniae, UniProt Q9F663). The following applies: read-out: Ki app, means from three independent studies.
Assay [2] addresses KPC-3 (Klebsiella pneumoniae, UniProt Q9F663, H272Y).
The target in assay [3] is KPC-2 (Klebsiella pneumoniae, UniProt Q9F663).

Protein sequences, listed by entry. Tags and fused reporters are not part of them. Residues count along the entry.
UniProt Q9F663, 25-293 limits assumed: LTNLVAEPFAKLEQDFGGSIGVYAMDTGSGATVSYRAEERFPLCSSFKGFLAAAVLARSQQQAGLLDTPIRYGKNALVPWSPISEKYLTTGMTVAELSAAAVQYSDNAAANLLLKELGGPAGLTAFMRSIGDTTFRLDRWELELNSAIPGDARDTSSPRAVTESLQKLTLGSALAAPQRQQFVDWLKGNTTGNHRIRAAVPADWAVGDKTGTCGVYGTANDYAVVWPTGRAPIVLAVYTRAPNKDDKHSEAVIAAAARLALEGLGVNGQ
UniProt Q9F663, 25-293 H272Y: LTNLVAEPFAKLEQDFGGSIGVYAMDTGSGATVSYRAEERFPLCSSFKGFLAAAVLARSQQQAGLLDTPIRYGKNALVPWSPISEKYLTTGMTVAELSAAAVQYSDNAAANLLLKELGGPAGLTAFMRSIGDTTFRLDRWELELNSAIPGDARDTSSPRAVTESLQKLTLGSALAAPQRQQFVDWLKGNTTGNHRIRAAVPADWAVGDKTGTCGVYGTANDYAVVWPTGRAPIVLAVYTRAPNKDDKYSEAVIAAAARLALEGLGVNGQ

Among the data in publication PMC11620503 (Antimicrobial Agents and Chemotherapy, 2024) are Ki values, retold here.

Structures are written as SMILES.

As for `O=C(NC1CCNCC1)[C@@H]1CC[C@@H]2CN1C(=O)N2OS(=O)(=O)O` [Relebactam, relebactam], the Ki in assay [1] was 2.94 ± 0.982 nM; in assay [2], 7.67 ± 1.64 nM; in assay [3], 5.03 ± 0.734 nM.
